## Binding of CDR-mutated scFvs to a peptide of the spike HR2 region

From the AlphaSeq antibody data of Engelhart et al. 2022 (doi:10.1038/s41597-022-01779-4), copy in the FLAb collection.

Antigen: PDVDLGDISGINAS, a 14-residue peptide of the SARS-CoV-2 spike HR2 region.

Parent: Ab-95, a human scFv built as VH, three GGGGS repeats, VL. Only the CDRs of the light chain vary.
VH: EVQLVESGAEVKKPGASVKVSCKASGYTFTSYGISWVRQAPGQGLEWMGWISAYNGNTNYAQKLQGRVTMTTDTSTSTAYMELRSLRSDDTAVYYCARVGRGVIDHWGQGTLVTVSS
VL: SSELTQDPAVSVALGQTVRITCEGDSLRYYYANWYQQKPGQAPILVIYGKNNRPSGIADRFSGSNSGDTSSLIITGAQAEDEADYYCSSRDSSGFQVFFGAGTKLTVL

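The starting antibody came from a phage panning campaign against this peptide. In library AAYL52, one, two or three CDR residues were substituted; doubles and triples were drawn at random. The assay is AlphaSeq: two haploid yeast populations carry antibody and antigen on their surface. Binding brings cells together so that they mate, and sequencing counts the barcode pairs among the diploids. The ratio of observed to expected reads was calibrated, replicate by replicate, on BCL2-family standards whose Kd was known from biolayer interferometry. Each pool was mated in three replicate cultures.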

The parent's light chain CDRs are EGDSLRYYYAN, GKNNRPS, SSRDSSGFQVF; each variant's own CDRs replace them letter for letter. Every variant below is changed at S93 of the VL (sequential numbering). Affinities are written as log10 Kd with Kd in nM; a lower number is a better binder. Averages over replicates are reported, and they cover detected replicates only. Where no diploid with the target was found in that replicate, the entry reads "ND": below detection, most likely a poor binder, though not proof of it.

* EGDSLRNYYAN | GNNNRPS | SSRDSVGFQVF = 3.15, 3.93, 2.20 (mean 3.09; controls 0 of 9)
* EPDSLHYYYAN | GKNNRPS | SSRDSHGFQVF = ND, ND, 3.30 (controls 3 of 9)
* EGDSLRYYYAN | GKQNRPS | SSRDSHGFQVP = 5.13, 3.62, 2.23 (mean 3.66; controls 4 of 9)
* EGDSLRYYYAN | GKNNRPS | SSRDSHGFQVF = 2.44, 2.35, 2.25 (mean 2.35; controls 6 of 9)
* EGDSLRYYYAN | GKNNRPS | SSIDSWGFQVE = 3.78, 2.83, 2.95 (mean 3.18; controls 1 of 9)
* EGDSLRYYYAN | GCNNRPH | SSRDSLGFQVF = ND, 4.05, ND (controls 5 of 9)
* AGASLRYYYAN | GKNNRPS | SSRDSWGFQVF = ND, 2.24, 1.71 (mean 1.97; controls 0 of 9)
* ESDSLRYYMAN | GKNNRPS | SSRDSEGFQVF = ND, ND, 3.58 (controls 1 of 9)
* EPDSLRYYYAN | GKNNRPS | SSRDSFGFQVF = 5.33, ND, ND (controls 1 of 9)
* EGDSLKYYYAN | GKNNRPS | YSRDSHGFQVF = 4.34, 2.95, 3.71 (mean 3.67; controls 1 of 9)
* EGDSLRYYYLN | GKNNRPS | SSRDSMLFQVF = 3.11, 4.38, ND (mean 3.75; controls 3 of 9)
* EGDSLRYYYAN | GKNNRPS | SSFDSDGFQVF = 2.63, 2.23, 2.14 (mean 2.33; controls 3 of 9)
* EGDSVRYYYAN | GKNNRPS | SSRDSIGFQVF = 3.26, 3.26, 2.44 (mean 2.98; controls 1 of 9)
* EGDSLTYYYAK | GKNNRPS | SSRDSVGFQVF = 3.59, ND, ND (controls 2 of 9)
* EGDSLRYYLAN | GKNNRPS | SSRDSAGTQVF = 2.79, 2.38, 1.98 (mean 2.39; controls 2 of 9)
* EGDSLRYYYAN | GKNTYPS | SSRDSWGFQVF = ND, ND, ND (controls 2 of 9)
* EGDSLRYYYAT | VKNNRPS | SSRDSMGFQVF = 5.00, ND, 4.66 (mean 4.83; controls 5 of 9)
* EGDSIRYYYAN | GKNNRPS | ISRDSEGFQVF = 4.96, 4.64, ND (mean 4.80; controls 2 of 9)
* NADSLRYYYAN | GKNNRPS | SSRDSFGFQVF = 3.82, 3.76, 3.95 (mean 3.84; controls 0 of 9)
* EGDSLRYYYAN | GKPNRPS | SSRDSPVFQVF = ND, 4.35, 4.19 (mean 4.27; controls 2 of 9)
* EGDSLRYYYAN | RKNNRPS | SSRDSARFQVF = 3.97, 3.67, ND (mean 3.82; controls 1 of 9)
* EGDGLRYYYAN | GKNNRPS | WSRDSWGFQVF = 2.49, 2.12, 2.50 (mean 2.37; controls 2 of 9)
* EGDSARYYYAN | GKNNVPS | SSRDSVGFQVF = ND, ND, ND (controls 2 of 9)
* EGDSLRYYYAN | GKNNRPS | SIRDHNGFQVF = 2.52, 2.29, 2.21 (mean 2.34; controls 0 of 9)
* EGDSLYYYYAN | GKNNRLS | SSRDSPGFQVF = 5.20, ND, 4.64 (mean 4.92; controls 5 of 9)
* EGDSLRHYYHN | GKNNRPS | SSRDSTGFQVF = 2.94, 2.98, 4.03 (mean 3.32; controls 4 of 9)
* DGDSLRYYYAN | GKNNAPS | SSRDSNGFQVF = 3.40, 3.29, ND (mean 3.34; controls 2 of 9)
* KGDSLRYYYAN | GKNNRPS | SSRDSVGFQVF = 3.24, 3.93, 3.37 (mean 3.51; controls 5 of 9)
* EGDSLRYYYAN | GKNNRPS | SSRTNDGFQVF = 2.07, 2.31, 1.95 (mean 2.11; controls 3 of 9)
* EGDSMRYYYAH | GKNNRPS | SSRDSWGFQVF = 3.64, ND, 3.65 (mean 3.64; controls 6 of 9)
* EGDSKRYYYAN | GKNNRPH | SSRDSVGFQVF = 3.20, 4.64, ND (mean 3.92; controls 3 of 9)
* EGDSLRYYYAN | GKNNRPC | SSRDSAGFQVA = 3.10, 2.93, 2.82 (mean 2.95; controls 2 of 9)
* EGDSLRYYTAN | GKNNRPS | SSRTSNGFQVF = 3.06, ND, 4.13 (mean 3.60; controls 3 of 9)
* EGDSLRHYIAN | GKNNRPS | SSRDSCGFQVF = ND, 3.43, ND (controls 3 of 9)
* EGDSARYYYAN | GKNNRLS | SSRDSPGFQVF = ND, 3.66, ND (controls 3 of 9)
* EGDSLRYQYAN | GKNNRPS | SSRDSEGLQVF = 2.16, 2.16, 1.67 (mean 2.00; controls 3 of 9)
* EGDSLRFYYAN | GKNNRPS | SSRDSIGFQVF = 2.47, 2.02, 1.74 (mean 2.08; controls 3 of 9)
* EVDSLRYYYAN | GKNNSPS | SSRDSPGFQVF = 4.87, ND, ND (controls 2 of 9)
* EGDSLRYYYAN | GKNNSPS | SSRDSFGFQRF = 2.87, 2.99, 3.10 (mean 2.99; controls 3 of 9)
* EGDSLRYYYAN | GKCDRPS | SSRDSMGFQVF = 3.45, 4.42, ND (mean 3.93; controls 4 of 9)
* EGDSLRYYYAN | GKNNDPS | SSRCSKGFQVF = 4.31, 3.58, ND (mean 3.95; controls 3 of 9)
* EGDSLRYYYAN | GGNNRMS | SSRDSMGFQVF = 3.74, 4.31, 3.51 (mean 3.85; controls 1 of 9)
* EGDSLRYYYFN | GKTNRPS | SSRDSVGFQVF = ND, 3.19, 3.81 (mean 3.50; controls 2 of 9)
* EGDSLRYYYAN | GKNNRHS | SSRHSWGFQVF = 4.27, 4.42, ND (mean 4.34; controls 4 of 9)
* EGDSLRYYYAN | GKNNRPS | RSRDSMGFQVF = 3.44, 2.79, 2.23 (mean 2.82; controls 5 of 9)
* EGDSLRYYYAN | GKHNRPS | ESRDSAGFQVF = 4.14, ND, ND (controls 5 of 9)
* EGDSKRYYYAN | GKNNRPS | SSRDSPGKQVF = 3.49, 3.01, 3.76 (mean 3.42; controls 1 of 9)
* EGDSLREYYAN | GKNNRGS | SSRDSLGFQVF = 3.07, 3.00, 3.99 (mean 3.35; controls 3 of 9)
* EGDSLDYYYYN | GKNNRPS | SSRDSTGFQVF = 3.44, 3.68, ND (mean 3.56; controls 1 of 9)
* EGDSLRYYYAN | GKNNWPS | SFRDSPGFQVF = 5.51, ND, ND (controls 4 of 9)
* EGDSERYEYAN | GKNNRPS | SSRDSKGFQVF = 2.79, 2.65, 2.62 (mean 2.69; controls 0 of 9)
* EGDSLKYYYAN | GKNNRPS | SSRDVTGFQVF = 2.20, 2.05, 1.72 (mean 1.99; controls 2 of 9)

The first 7 entries again:

- EGDSLRNYYAN | GNNNRPS | SSRDSVGFQVF: 3.15, 3.93, 2.20 (mean 3.09; controls 0 of 9)
- EPDSLHYYYAN | GKNNRPS | SSRDSHGFQVF: ND, ND, 3.30 (controls 3 of 9)
- EGDSLRYYYAN | GKQNRPS | SSRDSHGFQVP: 5.13, 3.62, 2.23 (mean 3.66; controls 4 of 9)
- EGDSLRYYYAN | GKNNRPS | SSRDSHGFQVF: 2.44, 2.35, 2.25 (mean 2.35; controls 6 of 9)
- EGDSLRYYYAN | GKNNRPS | SSIDSWGFQVE: 3.78, 2.83, 2.95 (mean 3.18; controls 1 of 9)
- EGDSLRYYYAN | GCNNRPH | SSRDSLGFQVF: ND, 4.05, ND (controls 5 of 9)
- AGASLRYYYAN | GKNNRPS | SSRDSWGFQVF: ND, 2.24, 1.71 (mean 1.97; controls 0 of 9)

For reference, the parent read 2.31 as the reference entry and 2.25 as a member of this library. Three control strains display no target. For library AAYL52, 28% of the pairings with them gave a signal, with a median of 3.91 and one signal in twenty below 2.90, so weak values seen in few replicates may be background. The control count says in how many pairings with the empty strains this scFv gave a signal.